Assay results published in patent US5763212A, “Inhibiting degradation of a degron-bearing protein” (California Institute of Technology, priority 1995, dated 1998).

What was measured:
[1] = test system: Arg-e^K-βgal (E. coli β-galactosidase-based N-end rule substrate); settings: addition of MTX, parallel assays in reticulocyte extract
[2] = test system: S. cerevisiae cells expressing Ub-Arg-DHFR^ts-ha-Cdc28; settings: MTX at a sufficiently high concentration in the medium
[3] = test system: Ub-Arg-DHFR^ts-ha-Cdc28 (mouse DHFR Pro66Leu ts allele fused to S. cerevisiae Cdc28); settings: pulse-chase, MTX in medium

CN(Cc1cnc2nc(N)nc(N)c2n1)c1ccc(C(=O)N[C@@H](CCC(=O)O)C(=O)O)cc1 [methotrexate]
effect on kinetics of Arg-e^K-βgal degradation [1]: did not alter the kinetics | viability of cells at 37° C. [2]: remained viable | effect on degradation of Ub-Arg-DHFR^ts-ha-Cdc28 at 37° C. [3]: inhibition of degradation
